What was measured:
CDK4/cyclin D1 = CDK4/cyclin D1 (Homo sapiens, UniProt P11802); test: biochemical
FLT1/VEGFR1 = FLT1/VEGFR1 (Homo sapiens, UniProt P17948); test: biochemical

Protein sequences, listed by entry. Tags and fused reporters are not part of them. Lines headed by an entry give the natural chain unless they say otherwise; changes in a name come on top. Residues count along the entry.
UniProt P11802: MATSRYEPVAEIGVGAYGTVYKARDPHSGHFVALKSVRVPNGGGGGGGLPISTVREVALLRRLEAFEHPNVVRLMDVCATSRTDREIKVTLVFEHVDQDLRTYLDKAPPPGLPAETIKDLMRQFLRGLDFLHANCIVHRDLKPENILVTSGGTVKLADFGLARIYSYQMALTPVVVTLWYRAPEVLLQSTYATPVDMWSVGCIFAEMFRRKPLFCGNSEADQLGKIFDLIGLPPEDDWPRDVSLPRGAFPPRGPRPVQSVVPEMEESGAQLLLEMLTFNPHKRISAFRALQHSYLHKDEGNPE
UniProt P17948, 27-1338: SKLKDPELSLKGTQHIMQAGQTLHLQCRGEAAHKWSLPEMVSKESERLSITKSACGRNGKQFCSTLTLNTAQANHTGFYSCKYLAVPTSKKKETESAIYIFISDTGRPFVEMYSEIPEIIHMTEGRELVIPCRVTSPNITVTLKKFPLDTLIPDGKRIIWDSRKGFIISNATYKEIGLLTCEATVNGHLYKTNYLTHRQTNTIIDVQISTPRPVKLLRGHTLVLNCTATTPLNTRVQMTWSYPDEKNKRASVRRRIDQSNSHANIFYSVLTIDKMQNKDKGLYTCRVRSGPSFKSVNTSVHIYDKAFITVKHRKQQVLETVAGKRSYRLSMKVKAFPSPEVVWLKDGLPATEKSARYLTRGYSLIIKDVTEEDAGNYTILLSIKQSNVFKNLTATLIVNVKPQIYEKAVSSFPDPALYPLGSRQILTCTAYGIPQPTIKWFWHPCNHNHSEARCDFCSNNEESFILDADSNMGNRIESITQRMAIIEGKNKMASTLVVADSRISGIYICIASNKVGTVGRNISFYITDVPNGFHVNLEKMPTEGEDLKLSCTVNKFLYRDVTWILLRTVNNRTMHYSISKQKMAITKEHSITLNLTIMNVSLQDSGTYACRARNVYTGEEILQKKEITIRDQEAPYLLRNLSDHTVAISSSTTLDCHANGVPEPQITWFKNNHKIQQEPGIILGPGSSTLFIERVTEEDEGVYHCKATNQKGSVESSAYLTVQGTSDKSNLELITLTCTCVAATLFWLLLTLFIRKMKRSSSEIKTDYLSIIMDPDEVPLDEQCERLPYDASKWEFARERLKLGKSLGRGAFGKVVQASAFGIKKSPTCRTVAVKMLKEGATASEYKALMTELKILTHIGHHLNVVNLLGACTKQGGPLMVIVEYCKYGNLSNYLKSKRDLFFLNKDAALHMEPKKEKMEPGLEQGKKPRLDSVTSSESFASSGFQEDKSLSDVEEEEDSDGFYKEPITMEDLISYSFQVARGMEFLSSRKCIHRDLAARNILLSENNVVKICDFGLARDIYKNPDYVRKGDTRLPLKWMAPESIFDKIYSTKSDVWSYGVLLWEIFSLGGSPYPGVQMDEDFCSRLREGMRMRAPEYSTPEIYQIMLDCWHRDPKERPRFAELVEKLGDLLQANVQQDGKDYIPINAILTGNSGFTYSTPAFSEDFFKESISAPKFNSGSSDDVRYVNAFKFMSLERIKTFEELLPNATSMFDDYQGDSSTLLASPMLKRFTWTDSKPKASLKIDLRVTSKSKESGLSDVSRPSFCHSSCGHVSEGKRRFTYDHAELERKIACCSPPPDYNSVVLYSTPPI

CCN1CCN(Cc2cc(C(=O)Nc3ccc4[nH]c(-c5ccc6cn[nH]c6c5)nc4c3)cc(C(F)(F)F)c2)CC1 [Compound 8r, N-(2-(1H-indazol-6-yl)-1H-benzo[di]imidazol-5-yl)-3-((4-ethylpiperazin-1-yl)methyl)-5-(trifluoromethyl)benzamide]
inhibition at 1 µM (CDK4/cyclin D1): 8.26% | inhibition at 1 µM (FLT1/VEGFR1): 6%
